MC4R antagonist: blocks human MC4R cAMP signaling. MC4R-expressing cells, MTII-stimulated cAMP, LANCE TR-FRET. 360,000 tested, 0.48% active. inhibition, % at 6.5 µM. P32245;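 active means inhibition above its plate's cutoff, the mean of tested wells on that plate plus 3 SD, cut at about 29% in these data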;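 further: 0% = Melanotan II alone and 100% = Melanotan II plus saturating MCL0020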
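Assay system: U2OS-MC4R stable cell line; Also added: Melanotan II; Technique: Eu-cAMP/anti-cAMP TR-FRET, emission 671 nm; Times: 30-min compound, 1-h challenge, 1-h detection, room temperature.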
HDAC3 inhib: blocks human histone deacetylase 3; O15379; recombinant HDAC3, fluorogenic peptide/trypsin coupled, fluorescence; inhibition, % at 8.3 µM; 320,000 tested, 0.15% active; in the data active means inhibition above about 26%, passing the limit was not always enough; inconclusive means no clear call, values can overlap the other calls
MC4R ag barr: human MC4R agonism via beta-arrestin; 360,000 tested, 0.98% active; U2OS MC4R beta-arrestin complementation, luminescence; percent of melanotan II response, DMSO zero; activation, % at 8.9 µM; AID 540308;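 active means activation above a per-plate cutoff, the mean activation of sample wells on that plate plus 3 SD, cut at about 8% in these data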
NALP1 inh: inhibitors of NALP1 inflammasome in yeast; 280,000 tested, 0.61% active; S. cerevisiae NALP1/ASC/caspase-1 growth, X-gal OD620, 72 h; inhibition, % at 10 µM; in the data active means inhibition mostly above about 24%, no sharp cut-off; inactive means mostly below about 32%
ALR inh: inhibitors of human sulfhydryl oxidase ALR; P55789; purified ALR, DTT oxidation, H2O2 HRP-luminol luminescence; inhibition, % (test concentration not listed); hit rate 3.8% among 290,000; AID 485317;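 active = mean and each replicate at 75% or more; inconclusive = only one of the two met; inactive = neither met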;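 also: stock transfer was 7.5 nL into about 7.5 µL; 0% = neutral wells and 100% = wells with inactivated enzyme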
Yeast UUG start: alters start codon recognition fidelity in yeast. S. cerevisiae UUG-firefly luciferase reporter, luminescence/redox ratio. AID 602363. activity score, % at 18.7 µM. hit rate 0.13% among 350,000;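 active = replicate mean at a twofold rise or more, about +100% in these data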;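 note: firefly luciferase made from a UUG start codon reports start codon fidelity; reporter light over untreated wells divided by growth signal over untreated wells; some hits fall short of that in this replicate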
Numbers without * were called inactive; ? = inconclusive; nt = no result. Sampled rows, rich in hits. Any-hit rate of the full collection: about 4.2%.

MC4R antagonist	HDAC3 inhib	canonical_smiles	MC4R ag barr	NALP1 inh	ALR inh	Yeast UUG start
-1	5	COc1cccc(CNc2ccc(N3CCC(C)CC3)cc2)c1OC	0	4	98*	-36
-2	0	Cc1cccc(N=C2NC(=O)/C(=C/c3cccn3C)S2)c1	-1	4	6	nt
-8	-2	O=C1NC(=Nc2ccccc2)S/C1=C\c1cccn1-c1ccccc1	3	39*	-10	-10
29*	4	CC(C)c1ccc(S(=O)(=O)/N=C2/C=C(Sc3ncn[nH]3)C(=O)c3ccccc32)cc1	-1	25	-64	nt
nt	38*	Cc1ccc(S(=O)(=O)/N=C2/C=C(Sc3ncn[nH]3)C(=O)c3ccccc32)c(C)c1	nt	24	-5	nt
0	nt	Cc1ccc(S(=O)(=O)/N=C2\C=C(NS(=O)(=O)c3ccccc3)C(=O)c3ccccc32)c(C)c1	0	nt	nt	-7
7	8	CC(C)(C)c1ccc(S(=O)(=O)/N=C2\C=C(NS(=O)(=O)c3ccccc3)C(=O)c3ccccc32)cc1	2	11	31	-11
16	2	CCCc1nnc(SCC(=O)N2CCCCC2C)n1CCOC (stereo not given)	-1	24*	2	nt
nt	nt	COc1ccc(S(=O)(=O)N(C)C[C@@H]2OCCCC[C@@H](C)Oc3ccc(NC(=O)C4CCCCC4)cc3C(=O)N([C@@H](C)CO)C[C@H]2C)cc1	nt	nt	nt	9
nt	nt	Cc1ccc(S(=O)(=O)Nc2ccc3c(c2)C(=O)N([C@@H](C)CO)C[C@@H](C)[C@@H](CN(C)C(=O)NC2CCCCC2)O3)cc1	nt	nt	nt	13
-5	1	Cc1c(CN2CCC(CO)(CCOc3ccccc3)CC2)c(=O)n(-c2ccccc2)n1C	-1	26*	-5	4
nt	nt	CO[C@@H]1CN(C)C(=O)c2ccc(NS(=O)(=O)c3cccc(F)c3)cc2OC[C@H](C)NC[C@H]1C	nt	nt	nt	-9
nt	nt	C[C@@H]1CN([C@H](C)CO)C(=O)c2cc(NS(=O)(=O)c3ccccc3)ccc2O[C@@H]1CN(C)C(=O)Nc1ccc2c(c1)OCO2	nt	nt	nt	3
-2	0	Cc1ccc(NC2CCCN(C(=O)c3cnsn3)C2)cc1C (stereo not given)	-2	30	99*	-13
9	-1	Cc1ccc(NC2CCCN(C(=O)c3cc(C(C)C)[nH]n3)C2)cc1C (stereo not given)	-3	2	99*	-16

Quoted from the listing.
Value for CCCc1nnc(SCC(=O)N2CCCCC2C)n1CCOC (stereo not given) in ALR inh: 2
Value for CO[C@@H]1CN(C)C(=O)c2ccc(NS(=O)(=O)c3cccc(F)c3)cc2OC[C@H](C)NC[C@H]1C in Yeast UUG start: -9
Value for CC(C)c1ccc(S(=O)(=O)/N=C2/C=C(Sc3ncn[nH]3)C(=O)c3ccccc32)cc1 in NALP1 inh: 25

Following part:
MC4R antagonist	HDAC3 inhib	canonical_smiles	MC4R ag barr	NALP1 inh	ALR inh	Yeast UUG start
8	2	CSc1nc(C(=O)N2CCCC(Nc3ccc(C)c(C)c3)C2)cs1 (stereo not given)	-1	13	98*	-18
1	4	COc1ccc(NC2CCCN(C(=O)c3csc(C)n3)C2)cc1 (stereo not given)	0	18	99*	-7
9	12	COc1ccc(C(=O)N2CCCC(Nc3ccc(C(C)C)cc3)C2)c(OC)n1 (stereo not given)	-2	4	32	-3
4	nt	CC(C)c1ccc(NC2CCCN(C(=O)c3cc(C(C)C)[nH]n3)C2)cc1 (stereo not given)	2	6	nt	7
nt	nt	O=C(C[C@H]1C[C@@H]2c3cc(NC(=O)C4CCOCC4)ccc3O[C@@H]2[C@@H](CO)O1)NCCc1ccccc1	nt	nt	nt	-4
3	-4	CCCc1cc(C(=O)N2CCCC(Nc3ccc(C)c(C)c3)C2)n(C)n1 (stereo not given)	1	10	98*	10
-4	3	Cc1nc(C(=O)N2CCCC(Nc3ccc(C)c(C)c3)C2)cs1 (stereo not given)	-1	-4	99*	-5
14	6	Cc1nc(CC(C)C)cc(C(=O)N2CCCC(Nc3ccc(C)c(C)c3)C2)n1 (stereo not given)	1	-3	?	2
13	-8	Cc1ccc2nccc(C(=O)N3CCCC(Nc4ccc(C)c(C)c4)C3)c2c1 (stereo not given)	-1	17	99*	0
3	1	Cc1ccc(NC2CCCN(C(=O)c3ccccn3)C2)cc1C (stereo not given)	-3	13	99*	1
nt	nt	Cc1noc(C)c1NC(=O)Nc1ccc2c(c1)C(=O)N([C@H](C)CO)C[C@H](C)[C@H](CN(C)S(=O)(=O)c1ccc(F)cc1)OCCCC[C@H](C)O2	nt	nt	nt	12

Three compounds out of the list above, ordered by the number in MC4R antagonist, lowest first:
Molecule,MC4R antagonist,HDAC3 inhib,MC4R ag barr,NALP1 inh,ALR inh,Yeast UUG start
Cc1nc(C(=O)N2CCCC(Nc3ccc(C)c(C)c3)C2)cs1 (stereo not given),-4,3,-1,-4,99*,-5
CCCc1cc(C(=O)N2CCCC(Nc3ccc(C)c(C)c3)C2)n(C)n1 (stereo not given),3,-4,1,10,98*,10
Cc1ccc2nccc(C(=O)N3CCCC(Nc4ccc(C)c(C)c4)C3)c2c1 (stereo not given),13,-8,-1,17,99*,0
